Measured values from PubChem BioAssay AID2690 (NMMLSC, 2010).
Only a part is listed here, and it is no random draw. Activity calls are given as the source filed them.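 Rule for the calls: active = superoxide response under a set limit, about three screen SD below normal (cut at about 65% in these data); inactive = the rest.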

experiment: yeast aging ROS inhibitors as calorie-restriction mimetics – HTS, primary screen (AID 2690);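 note: yeast aged for seven days with compound at 30 °C before DHE staining; 100% = average MFI of all compound-treated wells on the plate with controls excluded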; conditions: S. cerevisiae aged cells, superoxide DHE fluorescence; at 10 µM; active compounds read low

With `CCC(=O)N(c1ccccc1)C1(COC)CCN(CCn2nnn(CC)c2=O)CC1` as the molecule, how does the superoxide response (% of plate mean) read?
The superoxide response (% of plate mean) was inactive: 106%.

For `CCC(=O)N(c1ccccc1)C1(COC)CCN(CCc2cccs2)CC1`, which superoxide response (% of plate mean) is on record?
Its superoxide response (% of plate mean) is inactive: 118%.
